Assay results: publication PMC7763263 (2020)
Where two headings read alike, the source gives them in different places.

Sequences of proteins named here, by UniProt entry; tags and fusion partners are left off. Residues count along the entry.
UniProt P27338, whole entry: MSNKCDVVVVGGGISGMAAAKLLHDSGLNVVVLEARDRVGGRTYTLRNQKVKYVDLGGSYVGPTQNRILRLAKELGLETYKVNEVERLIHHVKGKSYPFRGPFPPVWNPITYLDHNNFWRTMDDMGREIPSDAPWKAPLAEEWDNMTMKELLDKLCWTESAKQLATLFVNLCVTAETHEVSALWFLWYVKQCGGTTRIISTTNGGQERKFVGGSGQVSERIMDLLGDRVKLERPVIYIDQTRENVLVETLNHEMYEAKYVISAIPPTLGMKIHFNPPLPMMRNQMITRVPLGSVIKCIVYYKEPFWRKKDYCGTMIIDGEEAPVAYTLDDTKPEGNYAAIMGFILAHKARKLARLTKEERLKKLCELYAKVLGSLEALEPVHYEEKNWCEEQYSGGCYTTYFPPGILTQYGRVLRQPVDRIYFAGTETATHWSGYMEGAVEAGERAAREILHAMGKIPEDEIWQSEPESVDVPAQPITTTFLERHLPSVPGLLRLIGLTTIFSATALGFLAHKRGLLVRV
UniProt P27338, 2-520 limits assumed: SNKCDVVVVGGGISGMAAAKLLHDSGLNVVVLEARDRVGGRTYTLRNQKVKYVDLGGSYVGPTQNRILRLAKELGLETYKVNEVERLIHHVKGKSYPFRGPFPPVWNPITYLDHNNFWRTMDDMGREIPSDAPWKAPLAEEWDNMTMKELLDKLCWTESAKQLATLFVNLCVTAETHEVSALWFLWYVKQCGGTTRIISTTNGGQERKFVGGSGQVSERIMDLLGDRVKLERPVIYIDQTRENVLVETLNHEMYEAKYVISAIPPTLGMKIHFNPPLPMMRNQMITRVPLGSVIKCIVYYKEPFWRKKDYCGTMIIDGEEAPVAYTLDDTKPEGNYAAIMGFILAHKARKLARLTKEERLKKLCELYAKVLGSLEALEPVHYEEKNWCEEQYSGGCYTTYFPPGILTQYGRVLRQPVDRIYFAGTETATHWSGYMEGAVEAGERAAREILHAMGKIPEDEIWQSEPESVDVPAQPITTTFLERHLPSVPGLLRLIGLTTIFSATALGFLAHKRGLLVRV
UniProt P21397, whole entry: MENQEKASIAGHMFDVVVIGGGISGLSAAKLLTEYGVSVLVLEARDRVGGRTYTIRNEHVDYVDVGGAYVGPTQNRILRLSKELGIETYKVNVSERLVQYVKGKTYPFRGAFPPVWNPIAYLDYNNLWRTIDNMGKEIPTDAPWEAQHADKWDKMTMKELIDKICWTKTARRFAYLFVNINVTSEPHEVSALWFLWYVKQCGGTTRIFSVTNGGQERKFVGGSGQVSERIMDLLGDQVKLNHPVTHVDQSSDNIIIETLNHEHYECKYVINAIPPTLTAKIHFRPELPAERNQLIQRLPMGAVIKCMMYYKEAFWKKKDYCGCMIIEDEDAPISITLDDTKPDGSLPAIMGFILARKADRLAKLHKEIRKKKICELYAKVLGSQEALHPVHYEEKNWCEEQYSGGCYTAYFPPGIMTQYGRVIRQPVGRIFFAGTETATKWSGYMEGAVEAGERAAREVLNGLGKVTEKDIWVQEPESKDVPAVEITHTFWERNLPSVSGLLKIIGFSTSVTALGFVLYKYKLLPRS

What was measured:
[1] = target: T1, human MAO-B (Homo sapiens, UniProt P27338); details: without preincubation, tyramine 2× KM (0.32 mM); mean ± SD of 2–4 experiments
[2] = target: T1, human MAO-B; details: human MAO in insect cell membranes, saturating substrate
[3] = target: T2, MAO-A (Homo sapiens, UniProt P21397); details: read-out: MAO-A IC50 AR Assay; initial reversible inhibition; ref Binda et al. [11]; cited from earlier work
[4] = target: T2, MAO-A; details: read-out: MAO-A Ki Direct; ref Binda et al. [11]; cited from earlier work
[5] = target: T1, human MAO-B; details: cited from earlier work
[6] = target: T1, human MAO-B; details: read-out: MAO-B KI; inactivation constant; cited from earlier work
[7] = target: T1, human MAO-B; assay: Reversible inhibition Ki, direct assay; details: read-out: Km as MAO-B substrate; phenelzine oxidized by MAO-B
[8] = target: T2, MAO-A; assay: IC50 after 30 min preincubation, coupled assay with saturating substrate; details: ratio of IC50 without/with 30 min preincubation

SMILES: NNCCc1ccccc1 [Phenelzine]
- MAO-B IC50 AR Assay [1]: (substrate)
- MAO-B IC50 after 30 min preincubation [2]: Substrate
- IC50 [3]: 112 ± 28 µM
- Ki [4]: 47 ± 2 µM
- Ki ([5]; read-out: Ki for reversible inhibition of MAO-B, assay not stated): 47 µM
- Ki ([5]; read-out: MAO-B Ki Direct, direct assay, ref Binda et al. [11]): 15 ± 2 µM
- Ki [6]: 50 µM
- Km [7]: 215 µM
- MAO-A Enhancement [8]: 24.9
